The values that follow come from patent publication US20170273985A1, “TRICYCLIC DERIVATIVE” (Sunovion Pharmaceuticals Inc., priority 2014, published 2017).

By UniProt entry, the sequences of proteins in these tests, tags left out.
UniProt P54750, whole entry: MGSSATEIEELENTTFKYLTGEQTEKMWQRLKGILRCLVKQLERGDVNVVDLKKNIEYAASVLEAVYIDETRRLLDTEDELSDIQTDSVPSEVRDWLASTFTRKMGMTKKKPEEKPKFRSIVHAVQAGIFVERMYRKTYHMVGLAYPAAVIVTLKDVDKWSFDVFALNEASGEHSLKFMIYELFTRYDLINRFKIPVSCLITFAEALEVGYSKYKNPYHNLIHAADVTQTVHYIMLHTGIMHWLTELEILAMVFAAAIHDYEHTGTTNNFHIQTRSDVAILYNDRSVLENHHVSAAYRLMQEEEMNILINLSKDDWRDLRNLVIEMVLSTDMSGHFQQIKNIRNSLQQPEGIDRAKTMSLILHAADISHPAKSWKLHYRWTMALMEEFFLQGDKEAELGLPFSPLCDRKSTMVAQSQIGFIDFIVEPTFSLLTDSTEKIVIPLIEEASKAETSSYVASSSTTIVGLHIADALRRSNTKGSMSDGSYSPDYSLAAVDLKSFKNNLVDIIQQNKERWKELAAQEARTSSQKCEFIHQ
UniProt Q14123, whole entry: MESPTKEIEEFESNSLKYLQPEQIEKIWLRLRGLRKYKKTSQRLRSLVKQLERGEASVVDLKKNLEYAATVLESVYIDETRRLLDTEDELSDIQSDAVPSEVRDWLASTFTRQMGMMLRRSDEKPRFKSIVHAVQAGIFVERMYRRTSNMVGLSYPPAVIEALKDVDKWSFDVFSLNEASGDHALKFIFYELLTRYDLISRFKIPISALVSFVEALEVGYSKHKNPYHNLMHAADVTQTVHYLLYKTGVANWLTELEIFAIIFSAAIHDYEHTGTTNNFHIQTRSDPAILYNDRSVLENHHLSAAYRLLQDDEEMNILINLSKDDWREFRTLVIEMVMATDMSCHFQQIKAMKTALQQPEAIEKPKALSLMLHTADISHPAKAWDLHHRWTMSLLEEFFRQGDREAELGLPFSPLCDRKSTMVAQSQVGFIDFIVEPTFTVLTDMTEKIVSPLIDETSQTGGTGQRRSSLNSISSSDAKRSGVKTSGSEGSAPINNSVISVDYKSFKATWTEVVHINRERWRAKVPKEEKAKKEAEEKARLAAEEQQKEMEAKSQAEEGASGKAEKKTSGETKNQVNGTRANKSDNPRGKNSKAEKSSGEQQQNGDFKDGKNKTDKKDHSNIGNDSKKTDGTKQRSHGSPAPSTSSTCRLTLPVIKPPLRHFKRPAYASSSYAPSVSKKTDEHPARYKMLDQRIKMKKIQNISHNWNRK
UniProt Q01064, whole entry: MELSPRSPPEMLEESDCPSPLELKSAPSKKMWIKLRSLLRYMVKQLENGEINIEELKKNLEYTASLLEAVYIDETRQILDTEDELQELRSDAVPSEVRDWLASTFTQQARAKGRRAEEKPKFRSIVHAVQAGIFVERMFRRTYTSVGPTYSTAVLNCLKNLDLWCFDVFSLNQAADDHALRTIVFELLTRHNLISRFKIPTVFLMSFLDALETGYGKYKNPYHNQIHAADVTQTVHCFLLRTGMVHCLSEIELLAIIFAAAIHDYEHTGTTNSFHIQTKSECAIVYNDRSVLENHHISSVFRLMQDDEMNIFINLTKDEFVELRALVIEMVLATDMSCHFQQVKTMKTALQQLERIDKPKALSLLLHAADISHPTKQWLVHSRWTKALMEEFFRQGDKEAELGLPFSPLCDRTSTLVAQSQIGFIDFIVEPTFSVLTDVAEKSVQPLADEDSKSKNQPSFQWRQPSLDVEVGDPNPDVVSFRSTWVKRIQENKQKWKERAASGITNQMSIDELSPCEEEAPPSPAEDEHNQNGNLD

pIC50: −log10 of the molar value.

Assay type in all cases: biochemical
Experiment [1] concerns the target PDE1A3 (Homo sapiens, UniProt P54750). In words: In vitro HTRF PDE1 inhibition assay (PDE1A3). The source says: (§1) An exemplary procedure for the in vitro Homogenous Time Resolved Fluorescence assay, which can be used to determine the inhibitory action of compounds of the invention toward PDE1 or its isoforms, follows. The HTRF PDE1 assay utilized the HTRF (Homogenous Time Resolved Fluorescence) technology, which is based on the competition between unlabeled cyclic nucleotide and cyclic nucleotide labeled with XL665 for the binding to cyclic nucleotide-specific antibody labeled with cryptate. The HTRF signal is thus inversely proportional to the concentration of cyclic nucleotide being measured. Since phosphodiesterases break down cyclic nucleotides the HTRF signal was used to determine PDE activity. The Cisbio cGMP HTRF assay kit (Cat no: 62GM2PEC) was utilized. Cyclic GMP was diluted to 200 nM in HTRF assay buffer (1 mM CaCl2, 10 mM MgCl2, 10 mM Tris-HCl, 0.1% BSA, pH 7.4). 10 μl of compound or DMSO was diluted in 200 nM cyclic GMP solution and added to wells of a 96 well white plate to give 100 nM cyclic GMP in 1% DMSO final concentration. PDE (1A3, 1B or IC) was diluted to 2× working concentration in HTRF assay buffer with 2 μg/ml calmodulin, and 10 μl was added to initiate the reaction. The plate was then incubated for 45 minutes at 37° C. d2-Labelled cyclic GMP and anti-cGMP cryptate were diluted in 50 mM phosphate buffer, 0.8 M KF, 1% Triton X100, 0.2% BSA, pH 7.0. Following incubation 10 μl d2-cGMP, then 10 μl anti cGMP cryptate were added to each well and the plate was incubated for 45 minutes at room temperature. The plate was then read on Perkin Elmer Victor at 2 different FRET readings ex/emm 340 nm/665 nm and 340 nm/615 nm. Compounds having an IC50 of <1 μM, are denoted as +++. Compounds having an IC50 of 1−10 μM, are denoted as ++. Compounds having an IC50 of 10-100 μM, are denoted as +.
Background: Time-resolved FRET reads energy transfer from a long-lived donor to a nearby acceptor.

Experiment [2] has as its target PDE1C (Homo sapiens, UniProt Q14123). In words: In vitro HTRF PDE1 inhibition assay (PDE1C).
Text: as §1

Experiment [3] has as its target PDE1B (Homo sapiens, UniProt Q01064). In words: In vitro HTRF PDE1 inhibition assay (PDE1B).
Text: as §1

In the case of `CO[C@H]1CC[C@H](CN2CCn3c2nn2c(C4CCOCC4)ncc2c3=O)CC1`, the pIC50 in experiment [1] (Table 26), in experiment [2] (Table 27) and in experiment [3] (Table 25) was more than 6.00 in each case.

`N#Cc1cccc(CCN2CCn3c2nn2c(C4CCOCC4)ncc2c3=O)c1` gave a pIC50 in experiment [3] (Table 25) of more than 6.00.

In turn, `O=c1c2cnc(C3CCOCC3)n2nc2n1CCN2C[C@H]1CC[C@@H](C(F)(F)F)CC1` showed a pIC50 in experiment [3] (Table 25) of more than 6.00.

`O=c1c2cnc(C3CCOCC3)n2nc2n1CCN2CCCCC(F)(F)F`: the pIC50 in experiment [3] (Table 25) was more than 6.00.

Turning to `O=c1c2cnc(C3CCOCC3)n2nc2n1CCN2CC1CCC(OC(F)(F)F)CC1` (stereo not drawn), the negative logarithm of the IC50 (pIC50) in experiment [3] (Table 25) was more than 6.00.

Turning to `CCO[C@H]1CC[C@H](CN2CCn3c2nn2c(C4CCOCC4)ncc2c3=O)CC1`, the pIC50 in experiment [1] (Table 26) and in experiment [3] (Table 25) was more than 6.00 each time.

Regarding `CCO[C@H]1CC[C@@H](CN2CCn3c2nn2c(C4CCOCC4)ncc2c3=O)CC1`, the pIC50 in experiment [1] (Table 26), in experiment [2] (Table 27) and in experiment [3] (Table 25) was more than 6.00 throughout.

In the case of `O=c1c2cnc(C3CCOCC3)n2nc2n1CCN2C[C@H]1CC[C@H](OC(F)(F)F)CC1`, the pIC50 in experiment [3] (Table 25) is more than 6.00.

For the compound `O=c1c2cnc(C3CCOCC3)n2nc2n1CCN2C[C@H]1CC[C@H](C(F)(F)F)CC1`, the negative-log IC50 (pIC50) in experiment [1] (Table 26), in experiment [2] (Table 27) and in experiment [3] (Table 25) was more than 6.00 throughout.

`CO[C@H]1CC[C@@H](CN2CCn3c2nn2c(C4CCOCC4)ncc2c3=O)CC1` gave a pIC50 in experiment [3] (Table 25) of more than 6.00.

Consider `CC(C)c1ncc2c(=O)n3c(nn12)N(Cc1ccc(C#N)cc1)CC3`, for which the pIC50 in experiment [1] (Table 23), in experiment [2] (Table 24) and in experiment [3] (Table 22) was more than 6.00 each time.

Take `O=c1c2cnc(C3CCOCC3)n2nc2n1CCN2C[C@H]1CC[C@@H](OC(F)(F)F)CC1`: the negative-log IC50 (pIC50) in experiment [3] (Table 25) was more than 6.00.

For orientation: pIC50 means −log10 of the IC50, conventionally taken in molar units.
